# Experiments:
# [1] = target: T1, AChE (Rattus norvegicus, UniProt P37136); conditions: read-out: AChE inhibitory IC50; Table 3, literature values; cited from earlier work
# [2] = target: T1, AChE; assay: Anti-AChE activities of known AChE inhibitors and novel dimers (Table 3); conditions: AChE inhibitory IC50 of tacrine divided by that of each AChE inhibitor
smiles,measurement,setting,value
c1ccc2c(NCCCNc3c4c(nc5ccccc35)CCCC4)c3c(nc2c1)CCCC3,IC50,[1],0.254 µM
same,Relative potency (fold change),[2],1 fold change
